The text below walks through data of publication PMC10285453 (Comprehensive Psychoneuroendocrinology, 2023).

The assay has as its system primary polyclonal rabbit anti-OXT IgG (Cayman Chemical Company OXT EIA, secondary monoclonal mouse anti-rabbit IgG). In words: OXT EIA cross-reactivity, Cayman Chemical Company kit. It counts as binding.

Take Albumin: the “cross-reactivity (IC50(OXT)/IC50(interfering protein))” value was less than 0.01%.
